The target of this assay is human topoisomerase II (Homo sapiens, UniProt P11388). Kind of assay: DNA Topo II inhibition (kDNA decatenation) assay. The assay is classed as biochemical. The procedure:
The ATP-dependent decatenation of kinetoplast DNA (kDNA) obtained from Crithidia fasciculata, which consists of a network of numerous minicircles (2.3 Kb) and some maxicircles, was used to measure topoisomerase II inhibition. Reactions took place in 20 μL and comprised topoisomerase II, 200–300 ng of kDNA, and 120 mM KCl with 50 mM Tris-HCl, pH 8, 10 mM MgCl2, 0.5 mM ATP, and 0.5 mM dithiothreitol. In preliminary tests, the quantity of topoisomerase II (5 units) was changed to decatenate almost 100% of the kDNA under these assay circumstances. […] The products in the reaction mixture were separated by a 1% agarose gel after the reaction was complete and then could be seen after being stained with ethidium bromide (0.2 μg/mL). The gels were run at 100 V for about 40 min and visualised under UV transillumination.
This assay is based on the fact that human Topo II can decatenate interlinked double-stranded DNA molecules.

By UniProt entry, the sequences of proteins in these tests, tags left out. Where a name states a change or a piece, a line headed by the entry shows the natural chain unless it says otherwise.
UniProt P11388: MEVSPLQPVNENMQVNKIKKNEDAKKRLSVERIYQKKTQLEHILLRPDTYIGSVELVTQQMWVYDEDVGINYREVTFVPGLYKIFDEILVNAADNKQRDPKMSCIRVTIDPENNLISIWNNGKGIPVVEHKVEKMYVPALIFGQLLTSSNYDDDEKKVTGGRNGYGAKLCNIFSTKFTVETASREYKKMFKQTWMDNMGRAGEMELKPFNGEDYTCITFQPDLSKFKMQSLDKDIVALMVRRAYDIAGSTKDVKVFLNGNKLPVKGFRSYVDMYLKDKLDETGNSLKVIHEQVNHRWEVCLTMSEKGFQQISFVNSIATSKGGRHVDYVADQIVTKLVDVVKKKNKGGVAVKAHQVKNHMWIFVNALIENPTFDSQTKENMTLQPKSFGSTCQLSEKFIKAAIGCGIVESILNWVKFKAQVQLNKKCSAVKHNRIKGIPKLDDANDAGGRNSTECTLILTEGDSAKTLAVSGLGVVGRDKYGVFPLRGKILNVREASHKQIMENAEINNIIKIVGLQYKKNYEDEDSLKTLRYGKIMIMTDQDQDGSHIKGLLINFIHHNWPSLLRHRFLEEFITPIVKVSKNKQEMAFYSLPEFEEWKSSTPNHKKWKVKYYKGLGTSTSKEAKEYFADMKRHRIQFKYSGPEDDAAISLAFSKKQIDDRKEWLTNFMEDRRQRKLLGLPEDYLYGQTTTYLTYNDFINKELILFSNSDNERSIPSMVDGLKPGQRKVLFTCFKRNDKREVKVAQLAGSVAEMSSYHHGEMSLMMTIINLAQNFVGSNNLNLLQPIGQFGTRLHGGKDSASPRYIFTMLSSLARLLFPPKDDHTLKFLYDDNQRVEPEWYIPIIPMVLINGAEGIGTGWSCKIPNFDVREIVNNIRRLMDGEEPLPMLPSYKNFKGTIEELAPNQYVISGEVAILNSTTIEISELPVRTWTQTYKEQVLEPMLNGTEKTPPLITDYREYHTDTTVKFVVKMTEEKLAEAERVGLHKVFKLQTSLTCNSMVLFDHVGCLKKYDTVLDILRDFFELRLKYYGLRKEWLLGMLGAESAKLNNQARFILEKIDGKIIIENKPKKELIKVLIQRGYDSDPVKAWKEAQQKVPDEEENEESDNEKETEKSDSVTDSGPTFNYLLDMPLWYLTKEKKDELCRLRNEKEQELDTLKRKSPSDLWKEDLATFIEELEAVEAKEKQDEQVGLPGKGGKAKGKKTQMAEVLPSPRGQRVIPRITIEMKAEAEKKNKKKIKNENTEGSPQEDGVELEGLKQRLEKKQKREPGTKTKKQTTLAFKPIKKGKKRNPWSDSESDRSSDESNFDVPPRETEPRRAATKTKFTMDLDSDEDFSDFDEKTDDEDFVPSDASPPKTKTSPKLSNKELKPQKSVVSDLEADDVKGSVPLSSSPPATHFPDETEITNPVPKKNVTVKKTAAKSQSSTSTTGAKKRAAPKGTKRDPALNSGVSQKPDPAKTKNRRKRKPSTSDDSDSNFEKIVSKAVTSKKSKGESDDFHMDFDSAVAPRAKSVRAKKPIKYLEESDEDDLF

On to `COc1cc([C@@H]2c3cc4c(cc3[C@@H](O[C@@H]3O[C@@H]5CO[C@@H](C)O[C@H]5[C@H](O)[C@H]3O)[C@H]3COC(=O)[C@H]23)OCO4)cc(OC)c1O` [Etoposide, reference compound], for which the “%inh TOPO II” value turned out to be 39% (conc 0.1 (μM)), 60% (conc 1 (μM)), 80% (conc 10 (μM)) and 92% (conc 100 (μM)).

(Values after publication PMC9930781, “Design, synthesis, docking, and anticancer evaluations of new thiazolo[3,2-a] pyrimidines as topoisomerase II inhibitors” (Journal of Enzyme Inhibition and Medicinal Chemistry, 2023).)
